The subject of one assay is LN-229. Briefly: Cytotoxicity against human LN229 cells assessed as reduction in cell proliferation measured after 48 hrs by trypan blue dye-based cell counting analysis. Type of assay: functional.
In the next assay the test system is U-87 MG. Briefly: Cytotoxicity against human U87 cells assessed as reduction in cell proliferation measured after 48 hrs by trypan blue dye-based cell counting analysis. Type of assay: functional. The settings on record: U-87MG ATCC.

`CC(=O)C(=NNc1ccccc1C#N)C(C)=O`: the Activity result with LN-229 and with U-87 MG was “Dose-dependent effect” each time.
